Key:
Assay type in all cases: functional
Acinetobacter baumannii [1] = test: Selectivity ratio of IC50 for efflux pump lacking Acinetobacter baumannii to IC50 for efflux pump lacking/OM pore producing Acinetobacter baumannii
Escherichia coli [2] = test: Selectivity ratio of IC50 for OM pore producing Escherichia coli to IC50 for efflux pump lacking/OM pore producing Escherichia coli
Acinetobacter baumannii [3] = test: Selectivity ratio of IC50 for OM pore producing Acinetobacter baumannii to IC50 for efflux pump lacking/OM pore producing Acinetobacter baumannii
Escherichia coli [4] = test: Selectivity ratio of IC50 for efflux pump lacking Escherichia coli to IC50 for efflux pump lacking/OM pore producing Escherichia coli

SMILES | Ratio IC50 (Acinetobacter baumannii [1]) | Ratio IC50 (Escherichia coli [2]) | Ratio IC50 (Acinetobacter baumannii [3]) | Ratio IC50 (Escherichia coli [4])
C[n+]1ccc2ccc(-c3ccc(N4C[C@H](CO)OC4=O)cc3F)cc2c1 | 5 |  |  | 
O=Cc1ccc(-c2ccc(N3C[C@H](CO)OC3=O)cc2F)cc1 |  | 12 | 14 | 
Cc1nn(C)c(C)c1C#Cc1ccc(N2C[C@H](CO)OC2=O)cc1F |  |  |  | 25
O=C1O[C@@H](CO)CN1c1ccc(-c2ccc(F)cc2)c(F)c1 |  | 10 |  | 
N/C(=N/O)c1ccc(-c2ccc(N3C[C@H](CO)OC3=O)cc2F)cc1 |  | 7 |  | 
CC(C)c1ccc(-c2ccc(N3C[C@H](CO)OC3=O)cc2F)c(C(C)C)c1 |  |  | 10 | 
COc1ccc(-c2ccc(N3C[C@H](CO)OC3=O)cc2F)cc1 |  | 14 | > 15 | 
O=C(O)c1ccc(-c2ccc(N3C[C@H](CO)OC3=O)cc2F)cc1 |  | > 39 | 5 | 21
CNC(=O)NCC#Cc1ccc(N2C[C@H](CO)OC2=O)cc1F |  | > 9 |  | > 10
O=C1O[C@@H](CO)CN1c1ccc(-c2ccccc2)c(F)c1 |  | 7 |  | 
Nc1ncc(-c2ccc(N3C[C@H](CO)OC3=O)cc2F)cn1 |  |  | 8 | 
O=C1O[C@@H](CO)CN1c1ccc(-c2ccc(-c3ccncc3)cc2)c(F)c1 | 16 |  | > 16 | 
O=C1O[C@@H](CO)CN1c1ccc(-c2ccc(C(F)(F)F)cc2)c(F)c1 |  | 10 | 11 | 
O=C1O[C@@H](CO)CN1c1ccc(-c2ccc(-c3cccnc3)cc2)c(F)c1 | > 5 |  | 10 | 
O=C1O[C@@H](CO)CN1c1ccc(-c2ccc3c(c2)OCO3)c(F)c1 |  | 8 | > 67 | 
C[n+]1ccc(-c2ccc(-c3ccc(N4C[C@H](CO)OC4=O)cc3F)cc2)cc1 | 6 |  |  | 
O=C1O[C@@H](CO)CN1c1ccc(C#Cc2cc(Cl)cc(Cl)c2)c(F)c1 |  |  |  | 7
O=C1O[C@@H](CO)CN1c1ccc(-c2ccnc(N3CCCC3)c2)c(F)c1 |  |  |  | 10
O=C1O[C@@H](CO)CN1c1ccc(-c2ccc(O)cc2)c(F)c1 |  | 10 |  | 
Cc1ccc(-c2ccc(N3C[C@H](CO)OC3=O)cc2F)cc1 |  | 10 | > 62 | 
